# PubChem BioAssay AID624256 (NMMLSC, 2012)
# This is a selection; strong and weak results do not stand in their true shares. Activity calls are given as the source filed them.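 Rule for the calls: active = normalized GFP-positive differentiation at or above the plate's own cutoff, the solvent-only control mean plus 3 SD; inconclusive = no clear call, values can overlap the other calls; inactive = the rest.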
# Experiment: induction of myeloid progenitor differentiation, primary screen, cell-based, flow cytometry, MLPCN library (AID 624256)
# Conditions: ER-HoxA9 myeloid progenitors, lysozyme-GFP differentiation, at 10 µM
row,SMILES,outcome
1,O=[As](O)(c1cccc(O)c1)c1cccc(O)c1,inactive
2,CCOC(=O)c1ccc(NP(C)(=O)Oc2cc(C)cc(C)c2)cc1 (stereo not drawn),inactive
3,Cc1ccc(NCCc2c([N+](=O)[O-])cc([N+](=O)[O-])cc2[N+](=O)[O-])cc1,inactive
4,Nc1cccc2c([As](=O)(O)O)cccc12,inactive
5,Cc1cc(C)cc(OP(C)(=O)Nc2ccccn2)c1 (stereo not drawn),inactive
6,CP(=O)(Nc1cccc(Br)c1)Oc1ccccc1 (stereo not drawn),inactive
7,Cc1ccc(C)c(NP(C)(=O)Oc2ccccc2)c1 (stereo not drawn),inactive
8,CCCOP(=S)(Nc1nc(N)cc(=O)[nH]1)OCCC,inactive
9,CCOP(=O)(Nc1cccc2ccccc12)OCC,inactive
10,Cc1c2c(nc3ccccc13)SC(C(Cl)Cl)C2 (stereo not drawn),inactive
11,Cc1cc(=O)[nH]c(N[N+](=O)[O-])n1,inactive
12,CCN(CC)CCCOC(=O)C(O)(c1ccccc1)c1ccccc1,inactive
13,O=C(OC1CN2CCC1CC2)C12CC3CC(CC(C3)C1)C2 (stereo not drawn),inactive
14,O=P1(N(CCCl)CCCl)OCCCN1CCCl (stereo not drawn),inactive
15,O=P1(N(CCCl)CCCl)Nc2ccccc2N1,inactive
16,COc1cc(I)ccc1[As](=O)(O)O,inactive
17,COc1ccc2nc(NP(=O)(c3ccccc3)c3ccccc3)sc2c1,inactive
18,O=[N+]([O-])c1cc(Oc2ccc([N+](=O)[O-])cc2C(F)(F)F)cc([N+](=O)[O-])c1,inactive
19,COc1ccccc1-c1ccccn1.O=[N+]([O-])c1cc([N+](=O)[O-])c(O)c([N+](=O)[O-])c1,inactive
20,COc1ccc(N/C(=N/P(=O)(N2CCOCC2)N2CCOCC2)N2CCOCC2)cc1,inactive
21,O=[N+]([O-])c1cc([N+](=O)[O-])c(Nc2cccnc2)c([N+](=O)[O-])c1,inactive
22,O=[N+]([O-])c1ccc(-c2cc([N+](=O)[O-])c(O)c([N+](=O)[O-])c2)cc1,inactive
23,COc1cc(C(=O)NCC2(N3CCOCC3)CCCCC2)ccc1OCC(C)C,inactive
24,O=[As](O)(c1ccc(O)cc1)c1ccccc1O,inactive

row,SMILES,outcome
1,C[As](=O)(O)c1cccc(C(=O)O)c1,inactive
2,Cc1cccc(C)c1OP(C)(N)=O (stereo not drawn),inactive
3,[N-]=[N+]=NC1CCCCC1NC(=O)c1cc([N+](=O)[O-])cc([N+](=O)[O-])c1 (stereo not drawn),inactive
4,Cc1ccc(OP(=O)(Nc2ccc([N+](=O)[O-])cn2)Oc2ccc(C)cc2)cc1,inactive
5,CC(C)(C)c1ccc(OP(C)(=O)Nc2ccc(SC(F)(F)F)cc2)cc1 (stereo not drawn),inactive
6,Cc1ccc2nc3c(c(C)c2c1)CC(C(Cl)Cl)S3 (stereo not drawn),inactive
7,ClCCSc1nnc(-c2cccnc2)o1,inactive
8,CCOC(=O)c1ccc(NP(C)(=O)Oc2ccccc2)cc1 (stereo not drawn),inactive
9,COC(=O)C1(C)COP(=O)(N2CCCCCC2)OC1 (stereo not drawn),inactive
10,Cc1ccc(NP(C)(=O)Oc2ccccc2)c(C)c1 (stereo not drawn),inactive
11,CC(C)c1ccc(OP(=O)(Nc2ccccn2)Oc2ccccc2F)cc1 (stereo not drawn),inactive
12,COc1ccccc1OP(C)(=O)Nc1ccc(C)cc1 (stereo not drawn),inactive
13,COc1ccc(OP(C)(=O)Nc2cccc(F)c2)cc1 (stereo not drawn),inactive
14,O=[N+]([O-])c1cc([N+](=O)[O-])c(-c2ccn[nH]2)s1,inactive
15,CC(C)NC(=O)NP(=O)(Oc1ccccc1)Oc1ccccc1,inactive
16,CCN(CC)C(=S)SC(NC=O)C(Cl)(Cl)Cl (stereo not drawn),inactive
17,O=C(OC1CN2CCC1CC2)c1cccc2[nH]cnc12 (stereo not drawn),inactive
18,Cc1cc(C)cc(OP(C)(N)=O)c1 (stereo not drawn),inactive
19,O=C(O)C(=O)c1ccc(N(CCCl)CCCl)cc1.c1ccc(Nc2ccccc2)cc1,inactive
20,CCOC(=O)Nc1ccc([As](=O)(O)O)c(O)c1,inactive
21,CC1CCNP(=O)(N(CCCl)CCCl)O1 (stereo not drawn),inactive
22,COP(=O)(OC)N1CC1c1ccccc1 (stereo not drawn),inactive
23,CCCCOc1ccc(C(=O)NCC2(N3CCCCC3)CCCCC2)cc1OC,inactive
24,CP(=S)(Nn1cnnc1)Oc1ccccc1 (stereo not drawn),inactive

row,SMILES,outcome
1,CCOC(=O)Nc1cccc([As](=O)(O)O)c1,inactive
2,COc1ccccc1OP(C)(=O)Nc1ccccc1 (stereo not drawn),inactive
3,O=P(Nc1ccccn1)(c1cccc2ccccc12)c1cccc2ccccc12,inactive
4,Cc1cc(SC(NC=O)C(Cl)(Cl)Cl)ncn1 (stereo not drawn),inactive
5,O=[N+]([O-])c1ccc(Nc2ccc(Oc3ccc([N+](=O)[O-])cc3[N+](=O)[O-])cc2)c([N+](=O)[O-])c1,inactive
6,CP(=O)(Nc1ccccc1Br)Oc1ccccc1 (stereo not drawn),inactive
7,CP(=O)(Oc1ccccc1)OC(c1ccccc1)C(F)(F)F (stereo not drawn),inactive
8,COC(=O)C1(C)COP(=O)(N2CCCC2)OC1 (stereo not drawn),inactive
9,COP1(=S)c2c(C)nn(CCC#N)c2N=C(c2ccc(F)cc2)N1C (stereo not drawn),inactive
10,Cc1ccc(Nc2c([N+](=O)[O-])cc([N+](=O)[O-])cc2[N+](=O)[O-])cc1,inactive
11,Cc1cccc(C)c1OP(C)(=O)Nc1ccc(SC(F)(F)F)cc1 (stereo not drawn),inactive
12,CP(=O)(Nc1ccc(SC(F)(F)F)cc1)Oc1ccc(Cl)cc1 (stereo not drawn),inactive
13,Cc1cc(C)cc(OP(C)(=O)Nc2ccc(SC(F)(F)F)cc2)c1 (stereo not drawn),inactive
14,O=C(Nc1ccncc1[N+](=O)[O-])c1ccc([N+](=O)[O-])cc1[N+](=O)[O-],inactive
15,O=C(COc1ccccc1)OC1CN2CCC1CC2 (stereo not drawn),inactive
16,CP(=O)(NC(=O)Nc1ccccc1)Oc1ccccc1 (stereo not drawn),inactive
17,CCc1ccc(OP(C)(=O)N2CCN(c3ccc([N+](=O)[O-])cc3)CC2)cc1 (stereo not drawn),inactive
18,CSc1ccc(Nc2c([N+](=O)[O-])cc([N+](=O)[O-])cc2[N+](=O)[O-])cc1,inactive
19,CCOP(C)(=S)SCC(=O)NC(C)C(=O)O (stereo not drawn),inactive
20,O=C(OC1CN2CCC1CC2)c1cccc([N+](=O)[O-])c1 (stereo not drawn),inactive
21,CCOC(=O)c1ccc(NC(=O)C(C)(CCl)SC)cc1 (stereo not drawn),inactive
22,CCOC(=O)c1ccc(NP(C)(=O)Oc2ccc(OC)cc2)cc1 (stereo not drawn),inactive
23,O=[N+]([O-])c1cc([N+](=O)[O-])c(O)c([N+](=O)[O-])c1.c1ccc(Oc2ccncc2)cc1,inactive
24,CCC(C)N(CC(C)C)C(=S)SC(NC(C)=O)C(Cl)(Cl)Cl (stereo not drawn),inactive

row,SMILES,outcome
1,CP(=O)(Nc1ccccn1)Oc1ccc(Cl)cc1 (stereo not drawn),inactive
2,COc1ccc(C2=NCC(CBr)S2)cc1 (stereo not drawn),inactive
3,COc1ccc(OP(C)(=O)Nc2ccc(Br)cc2)cc1 (stereo not drawn),inactive
4,CCN(CC)CC(O)COC(=O)C(O)(c1ccccc1)C1CCCCC1 (stereo not drawn),inactive
5,CCc1ccc(OP(C)(=O)Nc2cccnc2)cc1 (stereo not drawn),inactive
6,CP(=O)(Oc1ccccc1)N1CCOC1=O (stereo not drawn),inactive
7,O=C(OCCCN1CCCC1)C(O)(c1ccccc1)C1CCCCC1 (stereo not drawn),inactive
8,O=[N+]([O-])c1cccc2n[nH]nc12,inactive
9,CC(=O)N1C2C3N(C(C)=O)C1C1N(C(C)=O)C(C(N1C(C)=O)N3C(C)=O)N2C(C)=O,inactive
10,COc1ccccc1OP(C)(=O)Nc1c(C)n(C)n(-c2ccccc2)c1=O (stereo not drawn),inactive
11,CP(=O)(Nc1ccc(Cl)cc1)Oc1ccc(F)cc1 (stereo not drawn),inactive
12,CCN(/C(=N/P(=O)(N1CCOCC1)N1CCOCC1)N1CCOCC1)c1ccc(OC)cc1,inactive
13,C[N+]1=C2C=CC=CC=C2SC12C([N+](=O)[O-])=CC([N+](=O)[O-])=C[C-]2[N+](=O)[O-] (stereo not drawn),inactive
14,COc1ccccc1OP(C)(=O)Nc1ccccc1Br (stereo not drawn),inactive
15,CC(C)(C)c1ccc(OP(C)(=O)O)cc1,inactive
16,Nc1ccc([As](=O)(O)c2ccc(N)cc2)cc1,inactive
17,CC1CCN(C(=O)Oc2c(Cl)cc(Cl)c3cccnc23)CC1,inactive
18,c1cc(-c2nn[nH]n2)ccc1-c1nn[nH]n1,inactive
19,CN(C)C(=O)OCCc1n(C)cc[n+]1C,inactive
20,CC(C)c1nc(Nc2ccccc2)n(P(=O)(N(C)C)N(C)C)n1,inactive
21,CN(C)C(=O)c1c([N+](=O)[O-])cc([N+](=O)[O-])cc1[N+](=O)[O-],inactive
22,CC(C)=N/N=C(\N)N[N+](=O)[O-],inactive
23,O=P1(N(CCCl)CCCl)OCCCS1 (stereo not drawn),inactive
24,CP(=O)(OC12CC3CC(CC(C3)C1)C2)OC12CC3CC(CC(C3)C1)C2,inactive

row,SMILES,outcome
1,O=C(Nc1cc([As](=O)(O)O)ccc1O)c1ccccc1,inactive
2,CCOC(=O)c1ccc(NP(C)(=O)Oc2ccc(Cl)cc2)cc1 (stereo not drawn),inactive
3,O=[N+]([O-])c1ncn(CCn2ncnc2[N+](=O)[O-])n1,inactive
4,CC(C)(C)C(=O)NC(Sc1ccncn1)C(Cl)(Cl)Cl (stereo not drawn),inactive
5,O=C(O)CNc1ccc([As](=O)(O)O)cc1,inactive
6,COC(=O)C1(C)COP(=O)(Nc2ccccc2)OC1 (stereo not drawn),inactive
7,O=[N+]([O-])c1cccc(NC2=NCC(CBr)S2)c1 (stereo not drawn),inactive
8,O=P(Nc1nc2ccc(Cl)cc2s1)(c1ccccc1)c1ccccc1,inactive
9,Cc1cc(C)cc(OP(C)(=O)Nc2cccc(C(F)(F)F)c2)c1 (stereo not drawn),inactive
10,CN(C)P(=O)(N(C)C)n1c(Nc2ccccc2)nnc1-c1ccccc1,inactive
11,O=C1C(O)=C([N+](=O)[O-])C(=O)C(O)=C1[N+](=O)[O-],inactive
12,CCCC1OP(N)(=O)OCC1CC (stereo not drawn),inactive
13,CC(=O)Nc1ccc([As](=O)(O)O)cc1,inactive
14,O=C(O)c1ccccc1[As](=O)(O)O,inactive
15,COc1ccc(OP(C)(=O)Nc2ccccc2Br)cc1 (stereo not drawn),inactive
16,COc1ccccc1OP(C)(=O)Nc1ccc(C)c(C)c1 (stereo not drawn),inactive
17,Cc1ccc(NP(=O)(Oc2ccccc2F)Oc2ccccc2F)nc1,inactive
18,CN(C(=O)Cc1ccc(Cl)c(Cl)c1)[C@H]1CCCC[C@@H]1N1CCCC1,inactive
19,Cc1cc(SC(NC(=O)c2ccc(F)cc2)C(Cl)(Cl)Cl)ncn1 (stereo not drawn),inactive
20,CCOP(=O)(Nc1ccccc1)OCC,inactive
21,CP(=O)(Nc1ccc(Cl)cc1Cl)Oc1ccccc1 (stereo not drawn),inactive
22,CCCCCCCCCCCCCCCC1C[N+](C)(C)CCOP(C)(=O)O1 (stereo not drawn),inactive
